Tested on: M2-10B4 marrow stromal cells
Test: Alkaline phosphatase (ALP) activity assay on whole cell extracts of M2-10B4 marrow stromal cells
Assay type: cell-based, mouse
Conditions: pretreatment; cyclopamine 1-10 μM, DKK-1 1 μg/ml
Protocol: Cells: M2-10B4 mouse marrow stromal cell line obtained from American Type Culture Collection (ATCC, Rockville, Md., U.S.A.) was derived from bone marrow stromal cells of a (C57BL/6J x C3H/HeJ) Fl mouse, and support human and murine myelopoiesis in long-term cultures (as per ATCC) and have the ability to differentiate into osteoblastic and adipocytic cells. Unless specified, these cells were cultured in RPMI 1640 containing 10% heat-inactivated FBS, and supplemented with 1 mM sodium pyruvate, 100 U/ml penicillin, and 100 U/ml streptomycin (all from Irvine Scientific).
Cells were always treated at 90% confluence. […]
(A) M2 cells at confluence were pretreated for 4 hours with control vehicle (C) or 10 μM COX-1 inhibitor SC-560 (SC) in osteogenic medium as described earlier. […] After 3 days, ALP activity was measured as described earlier. […] (B) M2 cells were treated as described in (A) and after 10 days matrix mineralization in cultures was quantified by a ^45Ca incorporation assay as described earlier. […] After 8 days, total RNA was isolated and analyzed for osteocalcin (Osc) and […] expression by Northern blotting as previously described. […] After 3 days, ALP activity was measured as previously described. […] After 10 days, matrix mineralization in cultures was quantified using a ^45Ca incorporation assay as previously described. […]
ALP activity was measured after 2 days, as described. […]

**Q.** How did the “effect on SS-induced alkaline phosphatase (ALP) activity” value turn out when `CC1=C2C[C@H]3[C@@H](CC=C4C[C@@H](O)CC[C@@]43C)[C@@H]2CC[C@]12O[C@@H]1C[C@H](C)CN[C@H]1[C@H]2C` [cyclopamine, reference compound] was run?
**A.** Its value is “inhibited”.

— patent US20090220562A1, “Osteogenic and anti-adipogenic oxysterols” (priority 2005, published 2009)
